Chains of the proteins cited; added tags and fusions are not shown. Lines headed by an entry give the natural chain unless they say otherwise; changes in a name come on top. Residues count along the entry.
UniProt P0ABP8, 2-239 limits assumed: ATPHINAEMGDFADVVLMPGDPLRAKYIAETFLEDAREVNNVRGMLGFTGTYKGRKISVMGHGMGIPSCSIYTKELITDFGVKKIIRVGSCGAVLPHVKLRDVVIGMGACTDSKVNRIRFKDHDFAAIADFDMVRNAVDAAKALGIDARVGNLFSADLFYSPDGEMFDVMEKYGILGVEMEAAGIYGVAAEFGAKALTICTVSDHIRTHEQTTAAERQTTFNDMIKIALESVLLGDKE
UniProt P00491: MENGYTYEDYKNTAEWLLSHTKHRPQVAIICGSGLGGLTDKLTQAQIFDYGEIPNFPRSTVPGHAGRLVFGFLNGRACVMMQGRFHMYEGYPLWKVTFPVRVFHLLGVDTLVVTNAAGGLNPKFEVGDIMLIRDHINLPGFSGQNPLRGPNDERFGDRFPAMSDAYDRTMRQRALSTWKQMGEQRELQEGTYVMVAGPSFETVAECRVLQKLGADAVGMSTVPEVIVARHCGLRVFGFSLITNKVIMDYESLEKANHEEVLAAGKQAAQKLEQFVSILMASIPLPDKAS

In US6958318B2, “Recombinant bacterial cells for delivery of PNP to tumor cells” (The UAB Research Foundation, priority 1993, dated 2005):

Legend:
E. coli PNP = E. coli PNP (Escherichia coli, UniProt P0ABP8); test: Cleavage of purine analog nucleosides by E. coli PNP (HPLC); type: biochemical; conditions: in words
human PNP = human PNP (Homo sapiens, UniProt P00491); test: Cleavage of purine analog nucleosides by human PNP (HPLC); type: biochemical; conditions: for Substrate quality for mammalian (human) PNP: in words
[1] = test system: DNA, RNA and protein synthesis; test: Incorporation of thymidine into DNA, uridine into RNA, leucine into protein

Row | Molecule | Substrate quality for bacterial (E. coli) PNP (E. coli PNP) | Substrate quality for mammalian (human) PNP (human PNP) | Percent of substrate cleaved by Human PNP, 100 μM (human PNP; substrate 100 μM, 0.1 unit/ml enzyme, 25° C., 1 hour, stopped by boiling) | Percent of substrate cleaved by Human PNP, 1 mM (human PNP; substrate 1 mM, 25° C., 1 hour, stopped by boiling) | Effect on macromolecular synthesis [1]
1 | Nc1nc(Cl)nc2c1ncn2[C@H]1C[C@H](O)[C@@H](CO)O1 | good substrates | poor substrates | – | – | –
2 | 2-F-2′-F-2′-deoxyadenosine | – | poor substrates | 0(88) Percent and 0(86) Percent | 0(50) Percent and 0(47) Percent | –
3 | Cc1ncnc2nc[nH]c12 [MeP, 6-methylpurine, reference compound] | – | – | – | – | RNA and protein synthesis were affected most

“And” between values parts separate entries of the source, which are not always exact repeats. Identical values can stand only once.
